Publication PMC5508536 (Bioorganic & medicinal chemistry letters, 2017)

Amino acid sequences for entries named in this document (tags omitted).
UniProt P08912, whole entry: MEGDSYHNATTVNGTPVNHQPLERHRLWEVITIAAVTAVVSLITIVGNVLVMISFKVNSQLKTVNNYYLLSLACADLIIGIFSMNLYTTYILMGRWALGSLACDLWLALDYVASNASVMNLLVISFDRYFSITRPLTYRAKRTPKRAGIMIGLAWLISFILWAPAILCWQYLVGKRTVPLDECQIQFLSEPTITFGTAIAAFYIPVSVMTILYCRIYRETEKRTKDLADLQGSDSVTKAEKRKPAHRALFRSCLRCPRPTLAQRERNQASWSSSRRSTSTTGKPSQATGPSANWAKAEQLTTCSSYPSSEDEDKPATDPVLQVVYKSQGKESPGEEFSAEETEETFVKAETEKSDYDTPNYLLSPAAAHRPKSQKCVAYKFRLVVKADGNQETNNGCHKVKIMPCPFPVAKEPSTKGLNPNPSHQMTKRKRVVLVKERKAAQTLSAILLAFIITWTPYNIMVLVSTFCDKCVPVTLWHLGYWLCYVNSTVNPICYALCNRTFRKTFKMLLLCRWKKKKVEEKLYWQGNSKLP

Biological target: hM5 (Homo sapiens, UniProt P08912)
Assay: hM5 functional assay
Format: cell-based
Conditions: recombinant hM5 cells, in the presence of an ACh EC80

hM5 pIC50 (±SEM) | Structure (SMILES)
5.75±0.03 | Cc1cc(C23c4ccccc4C(=O)N2CCN3C(=O)c2ccc(F)c(F)c2)ccc1Cl (centres unmarked) [compound 9, 9b-(4-chloro-3-methyl-phenyl)-1-(3,4-difluorobenzoyl)-2,3-dihydroimidazo[2,1-a]isoindol-5-one]
5.93±0.02 | Cc1cc([C@@]23c4ccccc4C(=O)N2CCN3C(=O)c2ccc(F)c(F)c2)ccc1Cl [compound 11, 9b-(4-chloro-3-methyl-phenyl)-1-(3,4-difluorobenzoyl)-2,3-dihydroimidazo[2,1-a]isoindol-5-one]
